Only a part is listed here, and it is no random draw. The source made the active and inactive calls.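 How the source made its calls: active means inhibition above the mean of all tested compounds plus 3 SD, cutoff set per campaign (cut at about 30% in these data); inactive means the rest.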
target: Bcl-2-like protein 1 (Homo sapiens) (UniProt Q07817); test: inhibitors of human Bcl-xL, primary screen, biochemical, fluorescence polarization, HTS (AID 2129); settings: GST-Bcl-xL / FITC-Bim BH3 peptide fluorescence polarization; at 10.9 µM; stronger effect = higher value;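 further: 0% = DMSO wells and 100% = unlabeled Bim-BH3 peptide competitor; inhibitors lower millipolarization by displacing the labeled peptide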

Chains of the proteins cited; added tags and fusions are not shown.
UniProt Q07817, whole entry: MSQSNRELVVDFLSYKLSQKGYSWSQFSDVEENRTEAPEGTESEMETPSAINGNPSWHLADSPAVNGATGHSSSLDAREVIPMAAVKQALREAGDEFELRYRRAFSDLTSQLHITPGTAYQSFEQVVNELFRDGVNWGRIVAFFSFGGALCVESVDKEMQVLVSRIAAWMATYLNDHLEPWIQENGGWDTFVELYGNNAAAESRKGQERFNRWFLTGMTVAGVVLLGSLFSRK

SMILES | inhibition
Cc1cc(C)cc(OP(C)(=O)Nc2ccc(SC(F)(F)F)cc2)c1 (stereo not given) | inactive: 4.43%
Cc1cccc(C)c1OP(C)(=O)Nc1ccc(SC(F)(F)F)cc1 (stereo not given) | inactive: 5.73%
CP(=O)(Nc1ccc(SC(F)(F)F)cc1)Oc1ccc(Cl)cc1 (stereo not given) | inactive: 6.71%
CP(=O)(Oc1ccccc1)OC(c1ccccc1)C(F)(F)F (stereo not given) | inactive: 1.88%
CP(=O)(Nc1ccccc1Br)Oc1ccccc1 (stereo not given) | inactive: 2.35%
COc1ccccc1OP(C)(=O)Nc1ccccc1 (stereo not given) | inactive: -2.3%
CP(=S)(Nn1cnnc1)Oc1ccccc1 (stereo not given) | inactive: 4.44%
CCCOc1ccc(NP(C)(=O)Oc2ccc(Cl)cc2)cc1 (stereo not given) | inactive: 1.61%
CP(=O)(Nc1ccc(SC(F)(F)F)cc1)Oc1ccccc1 (stereo not given) | inactive: 1.03%
COc1ccccc1OP(C)(=O)Nc1c(C)cccc1C (stereo not given) | inactive: 5.76%
CN1CCCCC1COC(=O)C1(O)c2ccccc2CCc2ccccc21 (stereo not given) | inactive: -1.78%
CC1=C2N=C(C=C3N=C(C(C)=C4[N-][C@@](C)([C@@H]5N=C1[C@](C)(CCC(=O)NC[C@@H](C)OP(=O)([O-])O[C@H]1[C@@H](O)[C@@H](n6cnc7cc(C)c(C)cc76)O[C@@H]1CO)[C@H]5CC(N)=O)[C@@](C)(CC(N)=O)[C@@H]4CCC(N)=O)[C@@](C)(CC(N)=O)[C@@H]3CCC(N)=O)C(C)(C)[C@@H]2CCC(N)=O.[C-]#N.[Co+3] | inactive: -4.13%
O=[N+]([O-])c1cc([N+](=O)[O-])c(Nc2nnnn2CCO)c([N+](=O)[O-])c1 | inactive: 3.99%
CCOC(=O)C(CC)C1=NC(C)(C)Cc2ccccc21.O=[N+]([O-])c1cc([N+](=O)[O-])c(O)c([N+](=O)[O-])c1 (stereo not given) | inactive: 7.5%
Cc1nc2ccc3ccccc3c2s1.O=[N+]([O-])c1cc([N+](=O)[O-])c(O)c([N+](=O)[O-])c1 | inactive: 2.52%
O=[N+]([O-])c1cc([N+](=O)[O-])c(-c2cnn(-c3ccccc3)c2)c([N+](=O)[O-])c1 | inactive: 2.08%
O=[N+]([O-])c1cc([N+](=O)[O-])c(-n2nnc3ccccc32)c([N+](=O)[O-])c1 | inactive: 2.46%
Cc1ccc(C)c(NP(C)(=O)Oc2ccccc2)c1 (stereo not given) | inactive: 0.47%
Cc1cc(C)cc(OP(C)(=O)Nc2ccccn2)c1 (stereo not given) | inactive: 3.97%
CP(=O)(Nc1cccc(Br)c1)Oc1ccccc1 (stereo not given) | inactive: 6.69%
CCOC(=O)c1ccc(NP(C)(=O)Oc2cc(C)cc(C)c2)cc1 (stereo not given) | inactive: 3.46%
Cc1cc(C)cc(OP(C)(=O)Nc2ccc(C)cc2C)c1 (stereo not given) | inactive: -3.64%
COc1ccccc1OP(C)(=O)Nc1cccc(Br)c1 (stereo not given) | inactive: -0.87%
CC1=NCCc2c1[nH]c1ccccc21.O=[N+]([O-])c1cc([N+](=O)[O-])c(O)c([N+](=O)[O-])c1 | inactive: 4.68%
O=C(O)c1cccc(Nc2c([N+](=O)[O-])cc([N+](=O)[O-])cc2[N+](=O)[O-])c1 | inactive: 8.79%
